Values quoted from earlier work, collected in patent publication US11253508B2, “PPARy agonist for treatment of progressive supranuclear palsy” (Coherus Biosciences, Inc., priority 2017, dated 2022).

Conditions: in words; cited from earlier work

Structure (SMILES): CN(CCOc1ccc(CC2SC(=O)NC2=O)cc1)c1ccccn1 (stereo not shown) [rosiglitazone, reference compound]
- crossing of the blood brain barrier: does not cross the blood-brain-barrier
